# Test results taken from patent US10065948B2, “Histone deacetylase inhibitors and compositions and methods of use thereof” (CHDI Foundation, Inc., priority 2014, dated 2018).
# Chains of the proteins cited; added tags and fusions are not shown. Residues count along the entry.
# UniProt P56524, 648-1032: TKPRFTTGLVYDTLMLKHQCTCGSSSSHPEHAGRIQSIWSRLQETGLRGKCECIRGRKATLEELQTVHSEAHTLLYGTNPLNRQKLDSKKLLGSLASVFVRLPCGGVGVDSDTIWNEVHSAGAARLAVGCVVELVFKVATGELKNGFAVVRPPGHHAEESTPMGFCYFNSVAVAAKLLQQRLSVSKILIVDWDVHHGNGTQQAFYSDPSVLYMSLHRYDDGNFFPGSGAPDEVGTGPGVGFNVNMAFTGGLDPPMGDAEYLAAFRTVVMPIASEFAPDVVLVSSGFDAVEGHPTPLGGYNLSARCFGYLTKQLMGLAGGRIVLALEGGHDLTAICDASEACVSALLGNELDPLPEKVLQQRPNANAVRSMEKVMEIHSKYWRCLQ
# Target: Histone Deacetylase 4 (HDAC4) catalytic domain (Homo sapiens (Human), UniProt P56524)
# Experiment: Biochemical HDAC inhibition assay, fluorogenic substrate Boc-Lys(Tfa)-AMC
# Procedure: The potency of compounds is quantified by measuring the Histone Deacetylase 4 (HDAC4) catalytic domain enzymatic activity using the fluorogenic substrate, Boc-Lys(Tfa)-AMC. The substrate is deacetylated to Boc-Lys-AMC by HDAC4. Cleavage by trypsin results in the release of the fluorophore AMC from the deacetylated substrate. The fluorescence of the sample is directly related to the histone deacetylase activity in the sample.
# Stocks of 60 μL aliquots of the 10 mM compound in DMSO are prepared and stored at −20° C. From one stock aliquot of each compound to be tested and the reference compound, a 16-point serial dilution is prepared according to Table 1 using a 125 μL 16-channel Matrix multi-channel pipette (Matrix Technologies Ltd).
# 2 μL (200×) of each diluted solution and each control (full activity: 100% DMSO alone or full inhibition 1 mM) is stamped into V-bottomed polypropylene 384-well compound plates using either the Bravo (384-well head from Agilent) or 12.5 μL 16-channel Matrix multi-channel pipette (Matrix Technologies Ltd). Each well with the 200× compound solution is diluted 1:20 by the addition of 38 μL assay buffer+DMSO (10.5% DMSO, 45 mM Tris-HCl, 123 mM NaCl, 2.4 mM KCl, and 0.9 mM MgCl2 at pH 8.0 and equilibrated to room temperature).
# The HDAC4 catalytic domain enzyme is human catalytic domain HDAC4 protein (amino acids 648-1032) with a C-terminal 6× histidine tag, produced by BioFocus. A working solution of enzyme is prepared from a 500 μg/mL stock aliquot of HDAC4 catalytic domain (thawed on ice) diluted to 0.2 μg/mL with assay buffer (50 mM Tris-HCl, 137 mM NaCl, 2.7 mM KCl, and 1 mM MgCl2 at pH 8 and equilibrated to room temperature) just prior to the addition of the enzyme to the assay.
# 5× (50 μM) substrate is prepared just prior to the addition to the assay. A 1 mM substrate stock is made by diluting a 100 mM Boc-Lys(Tfa)-AMC in DMSO solution 1:100 by adding it drop-wise to assay buffer (equilibrated to room temperature) while vortexing at slow speed to prevent precipitation. The 5× substrate is prepared by diluting the 1 mM substrate solution 1:20 by adding it drop-wise to assay buffer (equilibrated to room temperature) while vortexing at slow speed to prevent precipitation.
# 3× (30 μM) Developer/Stop Solution is prepared just prior to addition to the plate by diluting a stock solution of 10 mM reference compound 1:333 in 25 mg/mL trypsin (PAA Laboratories Ltd.) equilibrated to room temperature.
# 5 μL of each solution of 1:20 diluted compound from above is transferred to a clear bottomed, black, 384-well assay plate using the Bravo or the Janus (384-well MDT head from Perkin Elmer). Using a 16-channel Matrix multi-channel pipette, 35 μL of the working solution of HDAC4 catalytic domain enzyme (0.2 μg/mL in assay buffer) is transferred to the assay plate. […] The assay plate is then shaken for two minutes on an orbital shaker at 900 rpm (rotations per minute). Next the plate is incubated for 15 minutes at 37° C. The reaction is stopped by adding 25 μL of 3× (30 μM) developer/stop solution to the assay plates using either the Bravo, Janus or a 16-channel Matrix multi-channel pipette. Assay plates are then shaken for 5 minutes on an orbital shaker at 1200 rpm. Next, the assay plates are incubated at 37° C. for 1 hour in a tissue culture incubator. Finally, the fluorescence is measured (Excitation: 355 nm, Emission: 460 nm) using PerkinElmer EnVision in top read mode.
row,Compound,IC50
1,"Cc1c(F)cccc1[C@]1(C(=O)NO)Cc2cnn(-c3ccc(Cl)cc3)c2C1 [Example 8, (S)-1-(4-Chlorophenyl)-5-(3-fluoro-2-methylphenyl)-N-hydroxy-1,4,5,6-tetrahydrocyclopenta[c]pyrazole-5-carboxamide]",112 nM
2,"Cc1cc(F)ccc1-n1ncc2c1C[C@](C(=O)NO)(c1cccc(F)c1C)C2 [Example 22, (S)-5-(3-Fluoro-2-methylphenyl)-1-(4-fluoro-2-methylphenyl)-N-hydroxy-1,4,5,6-tetrahydrocyclopenta[c]pyrazole-5-carboxamide]",44 nM
3,"Cc1c(F)cccc1C1(C(=O)NO)CCc2nn(-c3ccccc3F)cc2C1 (single isomer, unassigned) [Example 34, E2-(abs)-5-(3-fluoro-2-methylphenyl)-2-(2-fluorophenyl)-N-hydroxy-4,5,6,7-tetrahydro-2H-indazole-5-carboxamide]",19800 nM
4,"Cc1c(F)cccc1[C@]1(C(=O)NO)Cc2cnc(C3CC3)nc2C1 [Example 52, (S)-2-Cyclopropyl-6-(3-fluoro-2-methylphenyl)-N-hydroxy-6,7-dihydro-5H-cyclopenta[d]pyrimidine-6-carboxamide]",160 nM
5,"Cc1c(F)cccc1[C@]1(C(=O)NO)Cc2cnc(-c3cccnc3)nc2C1 [Example 60, (S)-6-(3-Fluoro-2-methylphenyl)-N-hydroxy-2-(pyridin-3-yl)-6,7-dihydro-5H-cyclopenta[d]pyrimidine-6-carboxamide]",220 nM
6,"Cc1cc(F)ccc1-n1cc2c(n1)C[C@](C(=O)NO)(c1cccc(F)c1C)C2 [Example 23, (S)-5-(3-fluoro-2-methylphenyl)-2-(4-fluoro-2-methylphenyl)-N-hydroxy-2,4,5,6-tetrahydrocyclopenta[c]pyrazole-5-carboxamide]",197 nM
7,"Cc1c(F)cccc1[C@@]1(C(=O)NO)Cc2cnc(C3CC3)nc2C1 [Example 50, (R)-2-Cyclopropyl-6-(3-fluoro-2-methylphenyl)-N-hydroxy-6,7-dihydro-5H-cyclopenta[d]pyrimidine-6-carboxamide]",220 nM
8,"Cc1ccccc1-n1ncc2c1CCC(C(=O)NO)(c1cccc(F)c1C)C2 (single isomer, unassigned) [Example 38, E2-(abs)-5-(3-fluoro-2-methylphenyl)-N-hydroxy-1-(o-tolyl)-4,5,6,7-tetrahydro-1H-indazole-5-carboxamide]",7900 nM
9,"Cc1c(F)cccc1[C@]1(C(=O)NO)Cc2cnc(-c3ccc(F)cc3)nc2C1 [Example 55, (S)-6-(3-Fluoro-2-methylphenyl)-2-(4-fluorophenyl)-N-hydroxy-6,7-dihydro-5H-cyclopenta[d]pyrimidine-6-carboxamide]",290 nM
10,"Cc1c(F)cccc1[C@]1(C(=O)NO)Cc2cnn(-c3c(F)cccc3F)c2C1 [Example 11, (S)-1-(2,6-Difluorophenyl)-5-(3-fluoro-2-methylphenyl)-N-hydroxy-1,4,5,6-tetrahydrocyclopenta[c]pyrazole-5-carboxamide]",12 nM
11,"Cc1ccccc1-n1ncc2c1CCC(C(=O)NO)(c1cccc(F)c1C)C2 (single isomer, unassigned) [Example 37, E1-(abs)-5-(3-Fluoro-2-methylphenyl)-N-hydroxy-1-(o-tolyl)-4,5,6,7-tetrahydro-1H-indazole-5-carboxamide]",1100 nM
12,"Cc1c(F)cccc1[C@]1(C(=O)NO)CCc2c1cnn2-c1ccccc1 [Example 54, (R)-4-(3-Fluoro-2-methylphenyl)-N-hydroxy-1-phenyl-1,4,5,6-tetrahydrocyclopenta[c]pyrazole-4-carboxamide]",72 nM
13,"Cc1ccccc1-n1ncc2c1C[C@](C(=O)NO)(c1cccc(F)c1C)C2 [Example 2, (S)-5-(3-Fluoro-2-methylphenyl)-N-hydroxy-1-(o-tolyl)-1,4,5,6-tetrahydrocyclopenta[c]pyrazole-5-carboxamide]",23 nM
14,"Cc1c(F)cccc1C1(C(=O)NO)CCc2nn(-c3ccccc3F)cc2C1 (single isomer, unassigned) [Example 33, E1-(abs)-5-(3-Fluoro-2-methylphenyl)-2-(2-fluorophenyl)-N-hydroxy-4,5,6,7-tetrahydro-2H-indazole-5-carboxamide]",710 nM

# The remaining lines, values ahead:
row,IC50,Compound
1,94 nM,"Cc1c(F)cccc1[C@]1(C(=O)NO)CCc2nc(C3CC3)sc21 [Example 72, (S)-2-Cyclopropyl-6-(3-fluoro-2-methylphenyl)-N-hydroxy-5,6-dihydro-4H-cyclopenta[d]thiazole-6-carboxamide]"
2,36 nM,"Cc1c(F)cccc1[C@]1(C(=O)NO)Cc2cnn(-c3ccc(F)cc3Cl)c2C1 [Example 90, (S)-1-(2-Chloro-4-fluorophenyl)-5-(3-fluoro-2-methylphenyl)-N-hydroxy-1,4,5,6-tetrahydrocyclopenta[c]pyrazole-5-carboxamide]"
3,210 nM,"Cc1c(F)cccc1C1(C(=O)NO)Cc2nc(-c3cccc(F)c3)sc2C1 (single isomer, unassigned) [Example 64, E1-(abs)-5-(3-Fluoro-2-methylphenyl)-2-(3-fluorophenyl)-N-hydroxy-5,6-dihydro-4H-cyclopenta[d]thiazole-5-carboxamide]"
4,9700 nM,"Cc1c(F)cccc1[C@@]1(C(=O)NO)Cc2snc(-c3ccccc3)c2C1 [Example 81, E2-(abs)-5-(3-Fluoro-2-methylphenyl)-N-hydroxy-3-phenyl-5,6-dihydro-4H-cyclopenta[d]isothiazole-5-carboxamide]"
5,> 50000 nM,"O=C(NO)[C@@]1(c2ccccc2)CCc2ccccc21 [Example 88, E2-(abs)-N-hydroxy-1-phenyl-2,3-dihydro-1H-indene-1-carboxamide]"
6,81 nM,"Cc1c(F)cccc1[C@@]1(C(=O)NO)Cc2nc(-c3ccc(F)cc3)sc2C1 [Example 66, (R)-5-(3-Fluoro-2-methylphenyl)-2-(4-fluorophenyl)-N-hydroxy-5,6-dihydro-4H-cyclopenta[d]thiazole-5-carboxamide]"
7,15300 nM,"O=C(NO)C1(c2ccccc2)Cc2ccccc2C1 [Example 89, N-Hydroxy-2-phenyl-2,3-dihydro-1H-indene-2-carboxamide]"
8,79 nM,"Cc1c(F)cccc1[C@]1(C(=O)NO)Cc2snc(-c3ccccc3)c2C1 [Example 80, E1-(abs)-5-(3-Fluoro-2-methylphenyl)-N-hydroxy-3-phenyl-5,6-dihydro-4H-cyclopenta[d]isothiazole-5-carboxamide]"
9,193 nM,"Cc1c(F)cccc1[C@]1(C(=O)NO)Cc2nc(-c3ccc(F)cc3)sc2C1 [Example 67, (S)-5-(3-fluoro-2-methylphenyl)-2-(4-fluorophenyl)-N-hydroxy-5,6-dihydro-4H-cyclopenta[d]thiazole-5-carboxamide]"
